Target: Human brain β-Secretase (Homo sapiens, UniProt P56817)
Test: MBP-C125 enzyme inhibition assay (ELISA detection of β-secretase cleavage of MBP-C125 substrate)
Conditions: read-out: IC50 Grouping, pH 4.5, 37° C., 90 minutes

By UniProt entry, the sequences of proteins in these tests, tags left out. Residues count along the entry.
UniProt P56817, 46-501 limits assumed: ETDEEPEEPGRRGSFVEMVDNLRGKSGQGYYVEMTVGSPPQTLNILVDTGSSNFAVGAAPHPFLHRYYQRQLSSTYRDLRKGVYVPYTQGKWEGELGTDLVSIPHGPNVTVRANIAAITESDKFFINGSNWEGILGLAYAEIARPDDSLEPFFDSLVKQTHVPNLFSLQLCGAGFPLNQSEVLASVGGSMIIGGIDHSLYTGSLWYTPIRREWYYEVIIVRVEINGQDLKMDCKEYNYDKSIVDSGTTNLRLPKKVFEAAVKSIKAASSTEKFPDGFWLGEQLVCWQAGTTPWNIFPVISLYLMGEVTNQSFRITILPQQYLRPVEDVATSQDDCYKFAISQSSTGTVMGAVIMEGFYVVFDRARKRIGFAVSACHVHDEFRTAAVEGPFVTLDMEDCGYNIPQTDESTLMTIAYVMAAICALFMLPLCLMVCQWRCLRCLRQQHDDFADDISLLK

In the case of `CC(C)C[C@H](NC(=O)C(O)c1cccc2ccccc12)[C@@H](O)CC(=O)N[C@H](C(=O)NCc1ccc(C(=O)O)cc1)C(C)C` (single isomer, unassigned), the IC50 is reported as 10 to 99 µM.
